Our source for the inhibition values is PubChem BioAssay AID624260 (Broad Institute, 2012).

Sequences of proteins named here, by UniProt entry; tags and fusion partners are left off. A change or cut given only in a name is not applied to a line headed by its entry.
UniProt O96028: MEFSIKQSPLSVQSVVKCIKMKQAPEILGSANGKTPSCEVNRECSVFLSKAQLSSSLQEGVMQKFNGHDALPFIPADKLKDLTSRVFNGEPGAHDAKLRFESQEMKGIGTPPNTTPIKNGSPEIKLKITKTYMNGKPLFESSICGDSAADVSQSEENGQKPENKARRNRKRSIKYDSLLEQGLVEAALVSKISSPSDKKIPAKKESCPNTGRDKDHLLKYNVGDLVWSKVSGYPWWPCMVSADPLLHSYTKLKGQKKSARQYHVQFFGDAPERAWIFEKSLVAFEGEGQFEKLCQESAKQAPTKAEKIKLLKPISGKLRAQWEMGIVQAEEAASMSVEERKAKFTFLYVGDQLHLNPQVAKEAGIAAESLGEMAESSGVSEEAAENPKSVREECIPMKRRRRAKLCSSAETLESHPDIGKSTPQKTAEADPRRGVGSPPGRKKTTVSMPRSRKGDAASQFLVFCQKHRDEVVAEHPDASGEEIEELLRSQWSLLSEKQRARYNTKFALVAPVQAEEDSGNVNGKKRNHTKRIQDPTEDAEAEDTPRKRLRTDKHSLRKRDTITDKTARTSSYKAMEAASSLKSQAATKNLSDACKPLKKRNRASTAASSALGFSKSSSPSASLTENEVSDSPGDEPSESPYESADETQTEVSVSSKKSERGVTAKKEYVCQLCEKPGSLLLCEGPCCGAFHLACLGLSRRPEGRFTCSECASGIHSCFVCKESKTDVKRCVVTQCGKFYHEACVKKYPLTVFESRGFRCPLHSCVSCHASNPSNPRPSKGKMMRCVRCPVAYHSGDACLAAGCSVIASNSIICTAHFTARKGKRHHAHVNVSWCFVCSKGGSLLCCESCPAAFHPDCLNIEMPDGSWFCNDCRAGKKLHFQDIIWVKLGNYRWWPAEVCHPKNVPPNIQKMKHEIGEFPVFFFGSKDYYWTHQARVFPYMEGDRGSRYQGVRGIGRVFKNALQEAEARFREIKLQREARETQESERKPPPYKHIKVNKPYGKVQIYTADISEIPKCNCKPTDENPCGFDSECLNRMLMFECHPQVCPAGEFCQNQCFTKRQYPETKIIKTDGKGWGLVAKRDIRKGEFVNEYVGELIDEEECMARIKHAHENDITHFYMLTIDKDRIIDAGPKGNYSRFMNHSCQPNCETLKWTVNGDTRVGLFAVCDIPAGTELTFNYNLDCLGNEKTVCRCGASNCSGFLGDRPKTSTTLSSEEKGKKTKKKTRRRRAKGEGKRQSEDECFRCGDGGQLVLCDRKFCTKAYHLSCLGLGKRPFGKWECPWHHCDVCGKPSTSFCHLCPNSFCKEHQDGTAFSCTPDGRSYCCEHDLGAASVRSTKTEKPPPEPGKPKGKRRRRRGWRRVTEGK

This is a selection; strong and weak results do not stand in their true shares. The source made the active and inactive calls. Cut-off read from the data, not from the text of the source: active = inhibition above about 54% (passing the limit was not always enough); inconclusive = no clear call, values can overlap the other calls.

The test addresses Histone-lysine N-methyltransferase NSD2 (Homo sapiens) (UniProt O96028). In words: inhibitors of human NSD2, primary screen, biochemical, plate reader, single point (AID 624260).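 Note: inhibitors reduce the monomethyl H3K36 fluorescence signal.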 The settings on record: NSD2-SET H3K36me1 DELFIA fluorescence, at 12.5 µM, stronger effect = higher value.
In the case of `COc1ccc(CN2/C(=N/P(=O)(Oc3ccccc3)Oc3ccccc3)CC(C)=CC2C)cc1` (stereo not given), the inhibition is inactive: 16.7%.

With `COc1ccc(CN2/C(=N\P(=O)(Oc3ccccc3)Oc3ccccc3)Cc3ccccc3C2C2CC2)cc1` (stereo not given), the inhibition was inactive: 5.4%.

As for `CN(C(=O)Cc1ccc(Cl)c(Cl)c1)C1CCCCC1N1CCCC1` (stereo not given), the inhibition was inactive: 0.0965%.

On to `CN(C(=O)Cc1ccc(Cl)c(Cl)c1)[C@H]1CCCC[C@@H]1N1CCCC1`, for which the inhibition is inactive: 1.5%.

As for `C=CC1C=C(C)C/C(=N\P(=O)(Oc2ccccc2)Oc2ccccc2)N1Cc1ccc(OC)cc1` (stereo not given), the inhibition was inactive: 19.3%.

For orientation: inhibition means how much of the control response was suppressed.
